This is a selection; strong and weak results do not stand in their true shares. The source made the active and inactive calls.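 How the source made its calls: active means inhibition above a per-plate limit, mean inhibition of low control wells plus 3 SD (cut at about 25% in these data); inactive means the rest.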

Sequences of proteins named here, by UniProt entry; tags and fusion partners are left off.
UniProt Q62848, whole entry, looked up: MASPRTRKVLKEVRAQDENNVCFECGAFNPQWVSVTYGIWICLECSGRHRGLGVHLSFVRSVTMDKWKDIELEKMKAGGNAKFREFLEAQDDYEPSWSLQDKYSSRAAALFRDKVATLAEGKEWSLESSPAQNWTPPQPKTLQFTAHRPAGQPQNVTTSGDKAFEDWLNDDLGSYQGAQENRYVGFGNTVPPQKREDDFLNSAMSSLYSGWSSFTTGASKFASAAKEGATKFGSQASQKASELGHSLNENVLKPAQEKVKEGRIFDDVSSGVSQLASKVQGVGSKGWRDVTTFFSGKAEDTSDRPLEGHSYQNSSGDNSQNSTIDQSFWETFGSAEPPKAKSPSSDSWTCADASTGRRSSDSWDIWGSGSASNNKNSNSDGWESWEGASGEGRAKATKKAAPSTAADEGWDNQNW

For the experiment, the target named is ADP-ribosylation factor GTPase-activating protein 1 (Rattus norvegicus) (UniProt Q62848). The experiment can be described thus: blockers of ARFGAP1-stimulated ARF1 GTP hydrolysis – biochemical, fluorescence polarization, GDP tracer, primary screen (AID 651572).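 Further: 0% = DMSO wells with enzyme and 100% = wells lacking Arfgap1.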 Conditions: GDP FP detection, at 16.5 µM, hits give high values. An outline of the steps: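 Material: rat Arfgap1 catalytic domain, aa 1-136; also added: human ARF1(Δ1-17)-GTP substrate; compound dosing: one concentration, 16.5 µM, DMSO 1.26%; incubation: GTP hydrolysis reaction 2 h at 25 °C; measured by: Tracer-displacement fluorescence polarization with EDTA stop, 620/688 nm; evaluation: % inhibition from polarization; repeats: one replicate per compound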
A general note: Fluorescence polarisation rises when a labelled molecule tumbles more slowly, as on binding a larger partner.
As a reminder, the inhibition is the relative decrease from the control value, in per cent. For `O=C(O)C(=O)c1ccc(N(CCCl)CCCl)cc1`, the inhibition is inactive: 4.91%. In the case of `CCOC(=O)c1ccc(NC(=O)C(C)(CCl)SC)cc1` (centres undefined) it was inactive: -2.72%; in that of `O=C(OC1CN2CCC1CC2)c1cccc([N+](=O)[O-])c1` (centres undefined), inactive: -1.39%. Then `CCC(C)N(CC(C)C)C(=S)SC(NC(C)=O)C(Cl)(Cl)Cl` (centres undefined), with inactive: 0.42%; and `O=C(OC1CN2CCC1CC2)C12CC3CC(CC(C3)C1)C2` (centres undefined), with inactive: -7.19%. Then `Cc1cc(=O)[nH]c(N[N+](=O)[O-])n1`, with inactive: 2.35%. For the molecule `Cc1c2c(nc3ccccc13)SC(C(Cl)Cl)C2` (centres undefined), the inhibition is inactive: -7.69%. In the case of `COc1ccc2nc(NP(=O)(c3ccccc3)c3ccccc3)sc2c1`, the inhibition was inactive: 0.7%. For the molecule `COc1cc(I)ccc1[As](=O)(O)O`, the inhibition was inactive: -7.5%. Then `O=P1(N(CCCl)CCCl)Nc2ccccc2N1`, with inactive: 6.29%.

Consider `O=P1(N(CCCl)CCCl)OCCCN1CCCl` (centres undefined), for which the inhibition is inactive: 2.95%. In the case of `COc1ccc(N/C(=N/P(=O)(N2CCOCC2)N2CCOCC2)N2CCOCC2)cc1` it was inactive: 3.14%. Then `O=[N+]([O-])c1cc(Oc2ccc([N+](=O)[O-])cc2C(F)(F)F)cc([N+](=O)[O-])c1`, with inactive: 2.87%; and `C[As](=O)(O)c1cccc(C(=O)O)c1`, with inactive: 5.18%; and `O=[As](O)(c1ccc(O)cc1)c1ccccc1O`, with inactive: 2.04%. With `O=[N+]([O-])c1ccc(-c2cc([N+](=O)[O-])c(O)c([N+](=O)[O-])c2)cc1`, the inhibition is inactive: 6.05%.

Consider `COc1cc(C(=O)NCC2(N3CCOCC3)CCCCC2)ccc1OCC(C)C`, for which the inhibition was inactive: 5.68%. In the case of `Cc1ccc2nc3c(c(C)c2c1)CC(C(Cl)Cl)S3` (centres undefined) it was inactive: -9.95%. Then `Cc1ccc(OP(=O)(Nc2ccc([N+](=O)[O-])cn2)Oc2ccc(C)cc2)cc1`, with inactive: 0.32%; and `[N-]=[N+]=NC1CCCCC1NC(=O)c1cc([N+](=O)[O-])cc([N+](=O)[O-])c1` (centres undefined), with inactive: 5.78%; and `COC(=O)C1(C)COP(=O)(N2CCCCCC2)OC1` (centres undefined), with inactive: -9.21%.

`CC(C)c1ccc(OP(=O)(Nc2ccccn2)Oc2ccccc2F)cc1` (centres undefined): the inhibition was inactive: 10.4%. In the case of `ClCCSc1nnc(-c2cccnc2)o1` it was inactive: -13.4%; in that of `CC(C)NC(=O)NP(=O)(Oc1ccccc1)Oc1ccccc1`, inactive: -5.02%; in that of `CCN(CC)C(=S)SC(NC=O)C(Cl)(Cl)Cl` (centres undefined), inactive: -9.56%. Then `O=C(OC1CN2CCC1CC2)c1cccc2[nH]cnc12` (centres undefined), with inactive: 0.47%. Then `CCOP1(=S)c2c(C)nn(CCC#N)c2N=C(c2ccccc2F)N1C` (centres undefined), with inactive: 0.14%; and `O=P(Nc1nccs1)(Oc1ccccc1)Oc1ccccc1`, with inactive: -0.66%. Turning to `O=C(O)COc1ccc([As](=O)(O)O)cc1[N+](=O)[O-]`, the inhibition is inactive: 8.42%. Then `Nc1ccccc1[As](=O)(O)c1ccccc1`, with inactive: -2.61%. In the case of `NC(=O)Nc1ccc([As](=O)(O)O)cc1` it was inactive: 3.99%; in that of `O=[N+]([O-])c1ccc2c(c1)nnn2O`, inactive: 2.94%. Turning to `CN(C)C(=O)c1cc([N+](=O)[O-])cc2c1-c1c(cc([N+](=O)[O-])cc1[N+](=O)[O-])C2=O`, the inhibition is inactive: -2.64%. Then `CN(C(=O)Cc1ccc(Cl)c(Cl)c1)[C@H]1CC[C@@]2(CCCO2)C[C@@H]1N1CCCC1`, with inactive: -13%; and `N#CCCN(C(=O)COC(=O)C(O)(c1ccccc1)c1ccccc1)c1ccc(F)cc1`, with inactive: -7.24%; and `CCOP1(=S)c2c(C)nn(CCC#N)c2N=C(c2ccc(F)cc2)N1C` (centres undefined), with inactive: -7.77%. Then `CN(C(=O)Cc1ccccc1)[C@@H]1CC[C@]2(CCCO2)C[C@H]1N1CCCC1`, with inactive: -8.69%; and `O=[As](O)(O)c1cccnc1`, with inactive: -9.83%; and `COc1cc(C(=O)NCC2(N3CCOCC3)CCCCC2)cc(Cl)c1OC(C)C`, with inactive: -5.02%. Then `CS(=O)(=O)c1ccc(Cl)c(NC(=O)COC(=O)C(O)(c2ccccc2)c2ccccc2)c1`, with inactive: 6.78%; and `O=C(OC1CN2CCC1CC2)c1ccc(Cl)cc1` (centres undefined), with inactive: -2.36%. As to `Cc1cccc(OCC(=O)OC2CN3CCC2CC3)c1` (centres undefined), the inhibition was inactive: 10.7%. For the molecule `O=[As](O)(c1cccc(O)c1)c1cccc(O)c1`, the inhibition is inactive: 9.58%. For the molecule `CCCOP(=S)(Nc1nc(N)cc(=O)[nH]1)OCCC`, the inhibition is inactive: 6.53%.

For `Cc1ccc(NCCc2c([N+](=O)[O-])cc([N+](=O)[O-])cc2[N+](=O)[O-])cc1`, the inhibition was inactive: 0.53%.

For `Nc1cccc2c([As](=O)(O)O)cccc12`, the inhibition is inactive: -3.49%. In the case of `COc1cc(C2NCCC3(OCCO3)C2(C)C)cc(OC)c1OC` (centres undefined) it was inactive: -4.88%; in that of `CCOP(=O)(Nc1cccc2ccccc12)OCC`, inactive: -5.1%; in that of `CCOP(=O)(Nc1ccc(C)cn1)OCC`, inactive: 3.36%. Turning to `CN(CCCl)Cc1cc(Cl)c(NC2=NCCN2)c(Cl)c1`, the inhibition was inactive: 9.06%. In the case of `CCC1=CC2Cc3nc4ccc(Cl)cc4c(N)c3C(C1)C2` (centres undefined) it was inactive: 8.51%; in that of `O=P1(Nc2ccccn2)COc2ccccc2OC1`, inactive: 12.5%. In the case of `CCOP(=O)(NC(=NC(C)c1ccccc1)NC(C)c1ccccc1)OCC` (centres undefined) it was inactive: 1.32%. In the case of `Clc1n[nH]nc1-c1nn[nH][15n]1` it was inactive: -0.67%; in that of `O=P1(N(CCCl)CCCl)NCCC(C(F)(F)F)O1` (centres undefined), inactive: 3.39%.

Turning to `CC(C)(C)C(=O)NC(Sc1ncccn1)C(Cl)(Cl)Cl` (centres undefined), the inhibition was inactive: -2.53%.

As to `COc1ccccc1CNC(=O)COC(=O)C(O)(c1ccccc1)c1ccccc1`, the inhibition is inactive: 8.95%. In the case of `CC1(CBr)Cn2c(nc3ccccc3c2=O)S1` (centres undefined) it was inactive: 2.63%. Then `CN(C(=O)Cc1ccc(Cl)c(Cl)c1)[C@@H]1CCCC[C@H]1N1CCCC1`, with inactive: 8.21%; and `CC(C)/C=N\N=C(\N)N[N+](=O)[O-]`, with inactive: -8.78%; and `CN(C(=O)Cc1ccc(Cl)c(Cl)c1)C1CCCC[C@@H]1N1CCCC1` (some centres undefined), with inactive: -3.7%. `Cc1nn(-c2ccccc2)c2c1P(=O)(N1CCOCC1)N(C)C(c1ccccc1)=N2` (centres undefined): the inhibition was inactive: -4.73%.

With `Cc1ccc(C(=O)OC2CN3CCC2CC3)cc1` (centres undefined), the inhibition is inactive: -2.67%. Then `CC1CCC(C(C)C)C(OP(=O)(Nc2ccccn2)c2ccccc2)C1` (centres undefined), with inactive: -8.46%; and `O=C(/C=C/c1ccccc1)OC1CN2CCC1CC2` (centres undefined), with inactive: -0.32%. `CCCC1OP(=O)(Nc2ccccc2)OCC1CC` (centres undefined): the inhibition was inactive: 4%. For the molecule `CN(C)C1(CNC(=O)c2ccc(S(C)(=O)=O)cc2)CCCCC1`, the inhibition was inactive: 1.01%. In the case of `O=P1(Nc2ncccn2)COc2ccccc2OC1` it was inactive: 1.6%; in that of `Cc1ccc(S(=O)(=O)N(CCCN)CCCc2c(C)nc(N)[nH]c2=O)cc1`, inactive: 3.43%. In the case of `Cc1ccc(OCC(=O)OC2CN3CCC2CC3)cc1` (centres undefined) it was inactive: 1.9%. As to `O=[As](O)(c1cccs1)c1cccs1`, the inhibition is inactive: 21.9%.

As to `NS(=O)(=O)c1cccc(NC(=O)COC(=O)C(O)(c2ccccc2)c2ccccc2)c1`, the inhibition is inactive: 5.91%. Then `O=P1(Nc2ccc(Br)cn2)COc2ccccc2OC1`, with inactive: -3.39%.

Regarding `Nc1cccc([As](=O)(O)c2ccccc2)c1`, the inhibition was inactive: 8.64%.

For the origin of these results see PubChem BioAssay AID651572 (The Scripps Research Institute Molecular Screening Center, 2012).
